Measured values published in patent publication US7608642B2, “Wound and skin care compositions” (Kimberly-Clark Worldwide, Inc., priority 2002, dated 2009).

Test system: human skin fibroblast cell line (normal human dermal fibroblasts, neonatal)
Conditions: 1×10^−4 M, 28 hours, serum-free DMEM, n=5

## O=C(O)c1ccccc1O [salicylic acid]
  Median optical density (OD) at 490 nm, cell proliferation: 0.4050
